## AlphaSeq binding of Ab-14 heavy chain variants to a spike HR2 peptide

Target peptide (SARS-CoV-2 spike, HR2 region): PDVDLGDISGINAS

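Phage display of a naive human antibody library on the peptide gave the parent. Variants in AAYL49 differ from the parent at up to three CDR positions; double and triple changes were sampled at random. The scFvs were displayed on barcoded MATa yeast, the peptide on MATalpha yeast. Binding brings cells together so that they mate, and sequencing counts the barcode pairs among the diploids. Each replicate has its own calibration line, from reference interactions of the BCL2 family. The assay was run in three technical replicates.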

Each scFv is VH, the linker GGGGSGGGGSGGGGS, VL, as in the parent Ab-14, and differs from it in the CDRs of the heavy chain only.
VH: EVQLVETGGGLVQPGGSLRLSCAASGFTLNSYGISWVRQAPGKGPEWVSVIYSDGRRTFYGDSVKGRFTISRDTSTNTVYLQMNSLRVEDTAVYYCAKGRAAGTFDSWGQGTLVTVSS
VL: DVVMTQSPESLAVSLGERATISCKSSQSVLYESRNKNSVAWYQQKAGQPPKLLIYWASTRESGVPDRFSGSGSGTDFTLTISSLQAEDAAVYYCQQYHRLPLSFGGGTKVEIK

Positions count from residue 1 of the parent VH; G55C puts C in place of G.
Kd is apparent (estimated from mating counts) and averaged on the log scale over replicates with a signal. Smaller is tighter.
An entry "nd" has no value in the source: the pair was not observed among the diploids in any replicate. This suggests poor binding but is not conclusive.

changes | Kd (apparent) | detected
G55C/K65D/A102V | nd | 0/3
F27E/T28M/D106E | 2.3 nM | 3/3
A102I/G103T/S107K | nd | 0/3
L29P/D54Y/F59N | nd | 0/3
F27N/Y32N/I34D | 120 µM | 1/3
S53K/K65Q/T104G | nd | 0/3
S53M/Y60N/G61Q | 440 nM | 1/3
T28M/G99M/S107Y | 1.4 µM | 3/3
Y52L/Y60N | nd | 0/3
S31R/V50R/G99D | 5.5 µM | 1/3
L29N/G99T/F105Q | 45 µM | 1/3
Y32R/F105C/S107C | 1.8 µM | 1/3
D62Q/R100E/A102E | 84 µM | 1/3
Y60G/S63H/G99L | 79 µM | 3/3
S35D/Y60K/G99L | 1.1 µM | 1/3
L29S/D54N/A102Y | 81 µM | 1/3
S63E/K65N/G103H | 9.5 µM | 2/3
G26C/D54H/R100C | 5.8 µM | 1/3
G55M/K65L/G99Y | nd | 0/3
G26V/F59P/G103W | nd | 0/3
Y52E/R57A/S107W | nd | 0/3
L29D/Y52E/S63A | 71 µM | 3/3
S35E/Y60E | nd | 0/3
T28P/S31E/A102I | 6.8 µM | 1/3
S31E/V50M/A101Q | 2.3 µM | 1/3
G33A/F59Q/A101Q | nd | 0/3
R56T/Y60F/G103F | 68 nM | 3/3
R56W/S63L/V64F | 110 µM | 1/3
T28D/N30G/G33H | 1.6 µM | 2/3
G26H/F27E/D54A | 3.8 µM | 1/3
G33A/I34F/K65F | nd | 0/3
G26C/Y60G/S107H | nd | 0/3
L29Q/V50H/S53D | 350 µM | 1/3
L29F/G33A/F59Q | 230 µM | 1/3
R56P/D62A/S63Y | 2.4 µM | 1/3
I51F/D54P/K65G | nd | 0/3
F27A/Y60L/D62C | nd | 0/3
I51M/Y60M/A102H | nd | 0/3
F27H/I34L/F105Y | nd | 0/3
S63E/A102S/F105P | 32 nM | 3/3
L29E/N30C/S63D | 6.4 µM | 1/3
L29D/D62S/D106F | nd | 0/3
R56W/S63L/R100P | nd | 0/3
N30P/G55N/A102K | 26 µM | 1/3
I51G/G55H/D62H | 23 µM | 3/3
Y32T/I34M/F105E | 38 µM | 2/3
T28P/Y32C | 50 µM | 1/3
R57W/S63N/F105Q | nd | 0/3
L29H/V64I/F105S | 20 µM | 1/3
Y52I/R100Y/G103Q | nd | 0/3
V50Q/S53E/D62A | 1.2 µM | 1/3
T28L/I51A/Y52H | nd | 0/3
S35V/G55N/K65H | 25 µM | 2/3
D62G/S63Y/A102K | nd | 0/3
R56V/Y60M/G103K | 77 nM | 3/3
F27I/S35T | nd | 0/3
T58D/D106L | 240 nM | 2/3
K65W/T104C/F105C | 300 nM | 3/3
G55I/R57Y/S107Q | 36 µM | 1/3
T58P/S63C/V64I | nd | 0/3
G55L/G103A/S107H | 220 µM | 1/3
I34A/T58W/R100M | nd | 0/3
G103E/F105S/D106Y | 1.7 µM | 1/3
G33K/F59V/G61V | nd | 0/3
I51G/S53L/G61I | 2.3 µM | 1/3
G26C/V50L/T104N | 14 µM | 1/3
S63K/A102C/G103A | nd | 0/3
G33A/V50A | 7.4 µM | 1/3
Y32S/G99S/F105Q | 84 µM | 1/3
I34A/D54I/F105R | 1.3 µM | 1/3
Y32I/S35P/G61H | 70 µM | 1/3
G26Q/S53A/R57Y | 840 nM | 2/3
G99R/A102I/G103C | 2.9 nM | 3/3
S35Q/G61W/R100V | 17 µM | 2/3
I34L/D62S/A102V | nd | 0/3
R57M/R100S/S107K | nd | 0/3
L29V/V50K/I51A | nd | 0/3
F59T/T104W/S107G | 1.3 µM | 3/3

The closing 4 entries, repeated:

changes | Kd (apparent) | detected
I34L/D62S/A102V | nd | 0/3
R57M/R100S/S107K | nd | 0/3
L29V/V50K/I51A | nd | 0/3
F59T/T104W/S107G | 1.3 µM | 3/3

As a blank, each scFv also met three strains without target: over library AAYL49, 15% of these pairings were detected, typically at 11 µM and seldom below 680 nM.
For reference, the parent read 4.4 nM as the reference entry and 13 µM (one replicate of three) as a member of this library.

Reference: Engelhart et al. 2022, doi:10.1038/s41597-022-01779-4. File: FLAb, binding data.